Among the data in article PMC8667921 are IC50 values, retold here.

By UniProt entry, the sequences of proteins in these tests, tags left out.
UniProt Q13526, whole entry: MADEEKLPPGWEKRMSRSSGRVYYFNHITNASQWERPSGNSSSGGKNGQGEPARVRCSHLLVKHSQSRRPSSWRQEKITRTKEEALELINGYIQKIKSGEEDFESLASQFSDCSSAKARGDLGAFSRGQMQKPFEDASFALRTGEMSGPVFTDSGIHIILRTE

pIC50: −log10 of the molar value.

The target of this assay is PIN1 (Homo sapiens, UniProt Q13526). Nature of the assay: in vitro fluorescent SensoLyte Green Pin1 Assay Kit.

`O=C(Nc1snnc1C(=O)O)c1ccc(Cl)cc1` gave a pIC50 of 4.53.
In turn, `O=C(O)c1ccc(-c2ccccc2)[nH]c1=O` had a pIC50 of 5.19.
